Data on one molecule can be found in patent US20030215462A1, “Use of UGT inhibitors to increase bioavailability” (priority 2001, published 2003).

Like-named read-outs stand apart in the source and are kept apart here.

One series has as its system human liver microsomes. The following applies: 2ME2 50 μM.
In series [1] the test system is pooled human jejunum microsomes.
The next series has as its target T1, UGT1A6 (Homo sapiens, UniProt P19224).
T1 sequence (P19224 27-532): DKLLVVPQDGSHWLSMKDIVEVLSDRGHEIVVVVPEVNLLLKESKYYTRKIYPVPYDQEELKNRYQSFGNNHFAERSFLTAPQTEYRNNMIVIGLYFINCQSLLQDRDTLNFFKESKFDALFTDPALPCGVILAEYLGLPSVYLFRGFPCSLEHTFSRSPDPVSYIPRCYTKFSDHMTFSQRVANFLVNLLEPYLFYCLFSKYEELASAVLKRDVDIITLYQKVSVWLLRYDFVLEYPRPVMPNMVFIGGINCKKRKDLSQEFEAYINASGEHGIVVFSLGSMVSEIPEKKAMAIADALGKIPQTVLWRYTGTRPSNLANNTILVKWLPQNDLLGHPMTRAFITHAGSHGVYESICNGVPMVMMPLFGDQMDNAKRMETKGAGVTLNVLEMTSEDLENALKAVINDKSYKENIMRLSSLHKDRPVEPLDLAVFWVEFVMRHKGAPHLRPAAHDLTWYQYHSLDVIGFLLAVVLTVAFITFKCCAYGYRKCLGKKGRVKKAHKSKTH
Kind of series: Substrate glucuronidation by recombinant UGT1A6.

For a further series, the target named is T2, UGT1A8 (Homo sapiens, UniProt Q9HAW9).
T2 sequence (Q9HAW9 26-530): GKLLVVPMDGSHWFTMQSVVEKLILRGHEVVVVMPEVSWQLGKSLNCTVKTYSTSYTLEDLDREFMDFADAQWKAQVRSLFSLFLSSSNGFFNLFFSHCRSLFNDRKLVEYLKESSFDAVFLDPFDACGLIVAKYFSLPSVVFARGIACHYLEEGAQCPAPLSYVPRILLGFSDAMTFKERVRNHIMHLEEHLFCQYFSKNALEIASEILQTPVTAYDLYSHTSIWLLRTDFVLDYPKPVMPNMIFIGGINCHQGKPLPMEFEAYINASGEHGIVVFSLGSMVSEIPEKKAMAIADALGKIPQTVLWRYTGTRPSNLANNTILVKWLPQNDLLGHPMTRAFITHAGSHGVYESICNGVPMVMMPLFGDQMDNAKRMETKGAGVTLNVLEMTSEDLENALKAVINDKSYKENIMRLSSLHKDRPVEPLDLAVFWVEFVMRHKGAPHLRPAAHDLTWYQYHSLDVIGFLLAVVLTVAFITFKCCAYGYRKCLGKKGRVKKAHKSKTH
The series is described as follows: Substrate glucuronidation by recombinant UGT1A8. The following applies: 2ME2 50 μM.

Another series addresses T3, UGT1A9 (Homo sapiens, UniProt O60656).
T3 sequence (O60656 26-530): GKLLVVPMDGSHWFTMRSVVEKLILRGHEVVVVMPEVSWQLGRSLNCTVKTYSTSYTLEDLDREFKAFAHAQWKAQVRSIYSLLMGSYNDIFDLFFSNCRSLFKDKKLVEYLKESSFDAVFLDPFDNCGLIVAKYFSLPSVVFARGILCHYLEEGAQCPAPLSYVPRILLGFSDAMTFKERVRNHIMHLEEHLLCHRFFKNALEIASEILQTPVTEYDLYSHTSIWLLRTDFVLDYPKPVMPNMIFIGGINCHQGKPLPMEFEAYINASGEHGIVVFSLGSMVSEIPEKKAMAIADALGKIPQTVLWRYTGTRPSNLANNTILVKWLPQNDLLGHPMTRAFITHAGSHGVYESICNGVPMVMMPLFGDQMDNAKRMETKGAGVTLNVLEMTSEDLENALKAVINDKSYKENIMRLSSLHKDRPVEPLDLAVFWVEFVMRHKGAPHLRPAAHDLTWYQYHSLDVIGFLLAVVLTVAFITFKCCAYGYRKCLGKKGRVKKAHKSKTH
Kind of series: Substrate glucuronidation by recombinant UGT1A9.

For another series, the target named is T4, UGT2B7 (Homo sapiens, UniProt P16662).
T4 sequence (P16662 24-529): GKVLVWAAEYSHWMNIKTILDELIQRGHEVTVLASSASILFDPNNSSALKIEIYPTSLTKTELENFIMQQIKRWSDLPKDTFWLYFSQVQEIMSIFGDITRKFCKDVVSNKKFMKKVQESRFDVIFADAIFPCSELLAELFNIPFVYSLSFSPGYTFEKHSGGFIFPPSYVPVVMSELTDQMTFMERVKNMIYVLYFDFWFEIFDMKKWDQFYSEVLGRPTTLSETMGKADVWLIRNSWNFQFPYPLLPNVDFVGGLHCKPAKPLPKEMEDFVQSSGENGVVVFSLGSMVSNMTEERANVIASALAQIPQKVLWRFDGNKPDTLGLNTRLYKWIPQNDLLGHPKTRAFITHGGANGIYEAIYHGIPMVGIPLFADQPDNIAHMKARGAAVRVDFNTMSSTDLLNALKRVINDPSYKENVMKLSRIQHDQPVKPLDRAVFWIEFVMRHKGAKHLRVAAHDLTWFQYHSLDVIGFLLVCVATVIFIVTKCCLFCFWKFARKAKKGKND
Kind of series: Substrate glucuronidation by recombinant UGT2B7. As to conditions: UGT2B7 Supersomes; 2ME2 50 μM.

Consider `COc1cc2c(cc1O)CC[C@@H]1[C@@H]2CC[C@]2(C)[C@@H](O)CC[C@@H]12` [2ME2, 2-Methoxyestradiol], for which the “ratio MG1/MG2” value with human liver microsomes (liver 032101) was found to be 3.6; in the series on human liver microsomes (liver 062101) it was 2.1; in series [1] (jejunum HJ61, 2ME2 50 μM) it was 541; at UGT1A8 (UGT1A8 Supersomes) it was 117; at UGT1A9 (UGT1A9 Supersomes, 2ME2 50 μM) it was 7.5. Also, in the series on human liver microsomes (liver 032101), the “relative metabolite level MG1 (peak area relative to MG1 in human liver microsomes)” value was 100 ± 5. In addition, the “relative metabolite level MG2” value in the series on human liver microsomes (liver 032101) was 28 ± 1; in the series on human liver microsomes (liver 062101) it was 26 ± 0; in series [1] (jejunum HJ61, 2ME2 50 μM) it was 1.0 ± 0.1; at UGT1A6 (UGT1A6 Supersomes, 2ME2 50 μM), “<LOQ”; on UGT1A8 (UGT1A8 Supersomes), 1.4 ± 0.0; on UGT1A9 (UGT1A9 Supersomes, 2ME2 50 μM) it was 2.4 ± 0.0. Besides, at UGT2B7, the “relative metabolite level MG2” value is on record as 5.9 ± 0.2. The “relative metabolite level MG1” value with human liver microsomes (liver 062101) is on record as 53 ± 0; in series [1] (jejunum HJ61, 2ME2 50 μM), 541 ± 18; at UGT1A6 (UGT1A6 Supersomes, 2ME2 50 μM) it was “<LOQ”; at UGT1A8 (UGT1A8 Supersomes), 161 ± 2; at UGT1A9 (UGT1A9 Supersomes, 2ME2 50 μM), 18 ± 0; at UGT2B7, “<LOQ”. For the same molecule, the “metabolism in intestinal (jejunal) versus hepatic microsomes, fold greater” value in series [1] is reported as 20 fold. Further, on UGT1A6 (UGT1A6), the “2ME2 metabolism, in words” value is “No 2ME2 metabolism was observed”. Besides, on UGT1A8 (UGT1A8), the “rate of 2ME2 loss” value is 2377+57 pmol/min/mg. The “2ME2 metabolic activity as % of the activity of UGT1A10” value at UGT1A9 (UGT1A9) is on record as “less than 10%”.
